Drawing on patent US6960590B2, “Orally active salts with tyrosine kinase activity” (Merck & Co. Inc., priority 2000, dated 2005), this text covers Solubility for 1 compound.

A short description of the data set: Solubility of salts of 4-9 prepared in situ (pH and concentration by HPLC). To be noted: free base plus 1.05 mole equivalents of acid, suspended in 100 μL of water, rotated overnight, centrifuged. The format is physicochemical. As to the method: Two forms of the mesylate salt were made: Salt 4-9A above and Salt 4-9B below. Numerous salts of 4-9 were prepared in situ and analyzed using the procedure outlined below, • 1) 1.25×10^−5 moles of free base were placed in a centrifuge tube. • 2) The free base was then reacted with 1.05 mole equivalents of acid. • 3) The reagents were mixed with a Vortex mixer and left to stand at room temperature or warmed if needed to dissolve the solid. • 4) 100 μL of water were added to suspend the solid. • 5) Tube was then covered with aluminum foil and spun overnight on a rotator. • 6) The tube was then spun in a centrifuge for 10 minutes at 10,000 RPM. • 7) An aliquot was removed from the sample and dried with nitrogen overnight to produce the solid residue (salt) which was analyzed via microscopy and DCS. • 8) The liquid residue from the remaining sample was used to measure pH and determine the concentration of salt by HPLC.

Structures can show the parent of a compound that is named as a salt.

Take `COCCN(C)CCOc1ccc2[nH]c(-c3cc4ccccc4[nH]c3=O)cc2c1` [Tartrate salt of 4-9, 3-(5-{2-[(2-methoxyethyl)(methyl)amino]ethoxy}-1H-indol-2-yl)-2(1H)-quinolinone]: the Solubility was found to be 25.3 mg/mL.
